From PMC11645235 (Cell, 2024)

Tested on: CRISPR-associated adenosine deaminase 1 (Cad1)
Test: ITC; co-crystal structure at […] Å (also cryo-EM of full-length hexamer with ATP, 9C77)

Nc1ncnc2c1ncn2[C@@H]1O[C@@H]2COP(=O)(O)O[C@H]3[C@@H](O)[C@H](n4cnc5c(N)ncnc54)O[C@@H]3COP(=O)(O)O[C@H]3[C@@H](O)[C@H](n4cnc5c(N)ncnc54)O[C@@H]3COP(=O)(O)O[C@H]3[C@@H](O)[C@H](n4cnc5c(N)ncnc54)O[C@@H]3COP(=O)(O)O[C@H]2[C@H]1O
Kd: 735 nM
